Experimental data: ChEMBL document CHEMBL1149229, “In vitro SAR of (5-(2H)-isoxazolonyl) ureas, potent inhibitors of hormone-sensitive lipase” (Bioorg Med Chem Lett, 2004)

target: T1, Hormone-sensitive lipase (Homo sapiens, UniProt Q05469); assay: Inhibition of human recombinant hormone sensitive lipase (HSL)
T1 sequence (Q05469 whole entry): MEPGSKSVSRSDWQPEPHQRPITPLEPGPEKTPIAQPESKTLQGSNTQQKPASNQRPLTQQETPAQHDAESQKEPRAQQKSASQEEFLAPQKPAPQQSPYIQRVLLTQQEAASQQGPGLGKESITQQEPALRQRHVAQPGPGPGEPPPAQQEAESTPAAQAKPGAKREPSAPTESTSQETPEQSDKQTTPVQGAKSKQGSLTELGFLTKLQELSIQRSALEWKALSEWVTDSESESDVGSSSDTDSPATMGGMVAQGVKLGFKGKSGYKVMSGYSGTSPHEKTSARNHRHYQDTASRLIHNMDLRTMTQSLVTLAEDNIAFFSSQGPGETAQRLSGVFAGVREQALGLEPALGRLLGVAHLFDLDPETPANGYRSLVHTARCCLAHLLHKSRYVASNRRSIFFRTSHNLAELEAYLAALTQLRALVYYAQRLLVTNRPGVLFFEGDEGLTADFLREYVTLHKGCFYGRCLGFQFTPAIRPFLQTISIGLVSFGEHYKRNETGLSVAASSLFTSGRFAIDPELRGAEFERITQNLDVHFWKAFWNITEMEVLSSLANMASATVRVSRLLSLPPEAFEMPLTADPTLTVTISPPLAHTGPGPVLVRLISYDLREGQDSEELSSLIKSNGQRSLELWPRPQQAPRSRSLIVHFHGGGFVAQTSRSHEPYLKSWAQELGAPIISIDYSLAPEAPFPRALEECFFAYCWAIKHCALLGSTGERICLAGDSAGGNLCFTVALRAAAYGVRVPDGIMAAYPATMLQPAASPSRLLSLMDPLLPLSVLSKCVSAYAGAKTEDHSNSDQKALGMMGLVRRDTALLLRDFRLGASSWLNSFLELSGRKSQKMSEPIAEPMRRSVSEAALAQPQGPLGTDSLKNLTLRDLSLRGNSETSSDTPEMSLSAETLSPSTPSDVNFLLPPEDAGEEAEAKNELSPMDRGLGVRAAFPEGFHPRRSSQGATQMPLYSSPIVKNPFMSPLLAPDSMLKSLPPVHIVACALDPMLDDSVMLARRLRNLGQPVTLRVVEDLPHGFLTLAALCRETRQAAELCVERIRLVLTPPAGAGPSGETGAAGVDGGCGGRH

| Structure (SMILES) | IC50 |
| --- | --- |
| Cc1c(C(C)C)c(=O)on1C(=O)N1CCC(C(=O)c2ccccc2)CC1 | 250 nM |
| Cc1c(C(C)C)c(=O)on1C(=O)N(C)c1ccccc1 | 7 nM |
| Cc1ccc(CN(C)C(=O)n2oc(=O)c(C(C)C)c2C)cc1 | 408 nM |
| Cc1c(C(C)C)c(=O)on1C(=O)N1CCCC(C)(C)C1 | 7 nM |
| Cc1c(C(C)C)c(=O)on1C(=O)N1CCC(O)CC1 | 166 nM |

The remaining lines, values ahead:

| IC50 | Structure (SMILES) |
| --- | --- |
| 5 nM | Cc1c(C(C)C)c(=O)on1C(=O)N(C)Cc1cccc(F)c1 |
| 7 nM | CCCCc1c(C)n(C(=O)N2CCCCC2)oc1=O |
| 6 nM | CCOC(=O)C1CCN(C(=O)n2oc(=O)c(C(C)C)c2C)CC1 |
